Patent publication US20260384428A1, “NOVEL PRMT5 INHIBITOR AND USE THEREOF” (published 2026)
pIC50: −log10 of the molar value.

Assays:
[1] = test system: HCT-116 MTAP(−/−) deficient cells; test: Inhibitory activity on the proliferation of HCT-116 MTAP (−/−) deficient cells (Cell-Titer Glo); conditions: read-out: IC50 HCT-116 MTAP(−/−) deficient cells, 8 days, 37 °C, 0.1% DMSO
From the text: Test Case 1: Inhibitory Activity Test of Compounds on the Proliferation of HCT-116 MTAP (−/−) Deleted Cells
(§1) Materials and cells: HCT-116 MTAP (−/−) deficient cells were purchased from Botron Healthcare (China); RPMI-1640 medium, fetal bovine serum and penicillin-streptomycin were purchased from Thermo Fisher (United States); 384-well plates were purchased from PerkinElmer (United States); and Cell-Titer Glo kits were purchased from Promega (United States).
Cell culture: HCT116 MTAP (−/−) deleted cells were cultured in RPMI 1640 medium containing 10% fetal bovine serum+1% penicillin-streptomycin at 37 °C and 5% CO2. Cells in the logarithmic growth phase may be used for the test.
(§2) Detection of inhibitory activity on cell proliferation: The Cell-Titer Glo kit was used to detect the proliferation inhibitory activity of the compounds on HCT-116 MTAP (−/−) deficient cells. The cell concentration was adjusted, rendering that cells were inoculated into a 384-well plate at 40 μL per well and incubated overnight at 37 °C and 5% CO2. 40 nL of the compound was added into each well to reach a final concentration of 0-10,000 nM (starting concentration: 10,000 nM, 3-fold dilution, 10 points), and the cell plate with 0.1% DMSO content was incubated at 37 °C and 5% CO2 for 8 days. 40 μL of Cell-Titer Glo reagent was added to detect cell activity.

HCT-116 wild-type cells = test: Inhibitory activity on HCT-116 wild-type cell proliferation (Cell-Titer Glo); conditions: read-out: IC50 HCT-116 wild-type cells, 8 days, 37 °C, 0.1% DMSO
Description: as §1, with “Test case 2: Inhibitory activity test of compounds on HCT-116 wild-type cell proliferation Materials” for “Materials”, “wild-type” for “MTAP (−/−) deficient”
Cell culture: HCT-116 wild-type cells were cultured in RPMI-1640 medium containing 10% fetal bovine serum+1% penicillin-streptomycin at 37 °C and 5% CO2. Cells in the logarithmic growth phase may be used for the test.
as §2, with “of” for “of inhibitory activity on”, “proliferation activity:” for “proliferation:”, “wild-type cell proliferation.” for “MTAP (−/−) deficient cells.”, “2-fold” for “3-fold”

Molecule	pIC50 [1]	pIC50 (HCT-116 wild-type cells)
Nc1nc2cc(F)c(C(=O)N(Cc3ccc(C(F)(F)F)cn3)CC(F)(F)F)cc2n2cncc12	7.36	5.63
CC(c1ccc(C(F)(F)F)cn1)N(C(=O)c1ccc2nc(N)c3cccn3c2c1)C1CC1 (stereo not shown)	5.29	–
COC[C@@H](C)N(Cc1ccc(C(F)(F)F)cn1)C(=O)c1cc2c(cn1)nc(N)c1cncn12	7.17	5.81
CC(c1ccc(C(F)(F)F)cn1)N(CC1CC1)C(=O)c1cc2c(cn1)nc(N)c1cncn12 (stereo not shown)	7.41	5.88
Nc1nc2cnc(C(=O)N(Cc3ccc(C(F)(F)F)cn3)CC3CC3)cc2n2cncc12	7.85	6.02
C[C@@H](c1ccc(C(F)(F)F)cn1)N(C(=O)c1ccc2nc(N)c3cncn3c2c1)C1CC1	5.23	–
Cn1cc(N(Cc2ccc(C(F)(F)F)cn2)C(=O)c2cc3c(cn2)nc(N)c2cncn23)cn1	7.76	5.75
Nc1nc2cc(F)c(C(=O)N(Cc3ccc(C(F)(F)F)cn3)C3CC3)cc2n2cncc12	8.01	5.83
4-amino-N-cyclopropyl-7-fluoro-N-(6-(trifluoromethyl)pyridazine-3-methyl)imidazo[1,5-a]quinoxaline-8-formamide	7.03	< 5.00
CC(c1ccc(C(F)(F)F)cc1)N(C(=O)c1ccc2nc(N)c3cncn3c2c1)C1CC1 (stereo not shown)	7.29	5.36
C[C@H](c1ccc(C(F)(F)F)cn1)N(C(=O)c1cc2c(cc1F)nc(N)c1cncn12)C1CC1	8.11	6.08
[2H]C([2H])([2H])N(C(=O)c1cc2c(cn1)nc(N)c1cncn12)C(C)c1ccc(C(F)(F)F)cn1 (stereo not shown)	7.24	5.20
COc1ccc(C(C)N(C(=O)c2cc3c(cc2F)nc(N)c2cncn23)C2CC2)nc1 (stereo not shown)	7.04	< 5.00
4-amino-7-fluoro-N-isopropyl-N-(1-(5-trifluoromethyl)pyridin-2-yl)ethyl)imidazo[1,5-a]quinoxaline-8-formamide	7.05	5.08
(S)-4-amino-7-fluoro-N-methyl-N-(1-(4-(trifluoromethyl)phenyl)ethyl)imidazo[1,5-a]quinoxaline-8-formamide	5.71	< 5.00
CC(c1ccc(C(F)(F)F)nn1)N(C(=O)c1ccc2nc(N)c3cncn3c2c1)C1CC1 (stereo not shown)	6.47	< 5.00
Nc1nc2cc(F)c(C(=O)N(Cc3nccc4ccccc34)C3CC3)cc2n2cncc12	6.82	< 5.00
CC(c1ncc(C(F)(F)F)cc1F)N(C(=O)c1ccc2nc(N)c3cncn3c2c1)C1CC1 (stereo not shown)	6.64	< 5.00
Nc1nc2ccc(C(=O)N(Cc3cc4ccccc4cn3)C3CC3)cc2n2cncc12	6.66	< 5.00
Nc1nc2cc(F)c(C(=O)N(Cc3cc4ccccc4cn3)C3CC3)cc2n2cncc12	7.05	< 5.00

Molecule	pIC50 [1]	pIC50 (HCT-116 wild-type cells)
C[C@H](c1ccc(C(F)(F)F)cn1)N(C)C(=O)c1ccc2nc(N)c3cncn3c2c1	7.68	5.33
CC(c1ccc(OC(F)(F)F)cc1)N(C(=O)c1ccc2nc(N)c3cncn3c2c1)C1CC1 (stereo not shown)	7.32	< 5.00
[2H]C([2H])([2H])N(C(=O)c1cc2c(cc1F)nc(N)c1cncn12)C(C)c1ccc(C(F)(F)F)nn1 (stereo not shown)	7.02	< 5.00
Nc1nc2cc(F)c(C(=O)N(Cc3ccc(OC(F)(F)F)cc3)C3CC3)cc2n2cncc12	7.66	5.79
CC(c1ccccc1)N(C)C(=O)c1cc2c(cn1)nc(N)c1cncn12 (stereo not shown)	< 5.52	< 5.00
Cc1ccc2c(N)nc3ccc(C(=O)N(Cc4ccc(C(F)(F)F)cn4)C4CC4)cc3n12	5.15	–
C[C@H](c1ccc(C2CC2)cc1)N(C)C(=O)c1cc2c(cn1)nc(N)c1cncn12	7.02	5.01
Nc1nc2ccc(C(=O)N(Cc3ccc(C(F)(F)F)cn3)C3CC3)cc2n2cnnc12	< 5.52	< 5.52
CC(c1ccc(C(F)(F)F)cn1)N(C(=O)c1cc2c(cn1)nc(N)c1cncn12)C1CC1 (stereo not shown)	7.14	5.37
(R)-4-amino-7-fluoro-N-methyl-N-(1-(4-(trifluoromethyl)phenyl)ethyl)imidazo[1,5-a]quinoxaline-8-formamide	8.06	5.97
Cn1cc(N(Cc2ccc(C(F)(F)F)cc2)C(=O)c2cc3c(cn2)nc(N)c2cncn23)cn1	7.95	6.25
C[C@H](c1ccc(C(F)(F)F)cc1)N(C)C(=O)c1cc2c(cc1Cl)nc(N)c1cncn12	8.10	5.95
N#Cc1cc2nc(N)c3cncn3c2cc1C(=O)N(Cc1ccc(C(F)(F)F)cn1)C1CC1	6.84	5.31
Cn1cc(N(Cc2ccc(C(F)(F)F)cc2)C(=O)c2ccc3nc(N)c4cncn4c3c2)cn1	7.46	5.81
Cc1ccn2c1c(N)nc1ccc(C(=O)N(Cc3ccc(C(F)(F)F)cn3)C3CC3)cc12	5.37	–
CC(c1ncccn1)N(Cc1ccc(C(F)(F)F)cn1)C(=O)c1ccc2nc(N)c3cncn3c2c1 (stereo not shown)	7.81	6.84
CC(c1ccc(SC(F)(F)F)cc1)N(C(=O)c1ccc2nc(N)c3cncn3c2c1)C1CC1 (stereo not shown)	7.46	< 5.00
CC(c1ccc2ccccc2n1)N(C(=O)c1cc2c(cc1F)nc(N)c1cncn12)C1CC1 (stereo not shown)	7.66	5.50
CC(c1ccc(OC(F)(F)F)cn1)N(C(=O)c1cc2c(cc1F)nc(N)c1cncn12)C1CC1 (stereo not shown)	7.72	5.79
CC(c1cnc(C(F)(F)F)cn1)N(C(=O)c1ccc2nc(N)c3cncn3c2c1)C1CC1 (stereo not shown)	< 5.52	< 5.00

Molecule	pIC50 [1]	pIC50 (HCT-116 wild-type cells)
Cc1ncc2c(N)nc3ccc(C(=O)N(Cc4ccc(C(F)(F)F)cn4)C4CC4)cc3n12	6.49	–
CC(c1ccc(OC(F)(F)F)cn1)N(C(=O)c1ccc2nc(N)c3cncn3c2c1)C1CC1 (stereo not shown)	7.24	< 5.00
COC[C@@H](C)N(Cc1ccc(C(F)(F)F)cn1)C(=O)c1ccc2nc(N)c3cncn3c2c1	8.35	7.04
Nc1nc2ccc(C(=O)N(Cc3ccc(C(F)(F)F)cn3)C3CC3)cc2c2cccn12	–	5.06
C[C@H](c1ncccn1)N(Cc1ccc(C(F)(F)F)cn1)C(=O)c1cc2c(cc1F)nc(N)c1cncn12	7.95	6.97
CC(c1ccc(C(F)(F)F)nn1)N(C)C(=O)c1cc2c(cc1F)nc(N)c1cncn12 (stereo not shown)	7.46	5.33
Cn1cc(N(Cc2ccc(C(F)(F)F)cn2)C(=O)c2ccc3nc(N)c4cncn4c3c2)cn1	7.45	5.54
CC(c1ccc(C(F)(F)F)cn1)N(C(=O)c1cc2c(cc1F)nc(N)c1cncn12)C1CC1 (stereo not shown) [Example 29]	7.18	5.33
Nc1nc2cc(C(F)(F)F)c(C(=O)N(Cc3ccc(C(F)(F)F)cn3)C3CC3)cc2n2cncc12	6.25	< 5.00
Cc1ncn2c1c(N)nc1ccc(C(=O)N(Cc3ccc(C(F)(F)F)cn3)C3CC3)cc12	7.12	5.10
CC(c1ncccn1)N(Cc1ccc(C(F)(F)F)cn1)C(=O)c1ccc2nc(N)n3ccnc3c2c1 (stereo not shown)	5.42	< 5.00
Nc1nc2ccc(C(=O)N(Cc3ccc(C(F)(F)F)cn3)C3CC3)cc2n2cccc12	5.52	–
CC(c1cc2ncn(C)c2cn1)N(C(=O)c1cc2c(cc1F)nc(N)c1cncn12)C1CC1 (stereo not shown)	< 5.52	< 5.00
Nc1nc2ccc(C(=O)N(Cc3ccc(C(F)(F)F)cn3)C3CC3)cc2n2cncc12	7.00	5.06
Nc1nc2cc(F)c(C(=O)N(Cc3ccc(C(F)(F)F)nc3)C3CC3)cc2n2cncc12	7.01	< 5.00
CN(Cc1ccccc1)C(=O)c1ccc2nc(N)c3cncn3c2c1	< 5.52	< 5.52
Nc1nc2ccc(C(=O)N(Cc3ccc(C(F)(F)F)cn3)C3CC3)cc2n2cc(F)cc12	5.79	–
Cc1nc(C)n2c1c(N)nc1ccc(C(=O)N(Cc3ccc(C(F)(F)F)cn3)C3CC3)cc12	6.05	–
CC(c1ncccn1)N(Cc1ccc(C(F)(F)F)cn1)C(=O)c1ccc2nc(N)c3nccn3c2c1 (stereo not shown)	5.29	–
CC(c1ccc(C(F)(F)F)nn1)N(C)C(=O)c1cc2c(cc1Cl)nc(N)c1cncn12 (stereo not shown)	7.61	–
